Test results as given in patent EP4570793A1, “5-HT2A RECEPTOR INVERSE AGONIST, AND PREPARATION METHOD THEREFOR AND USE THEREOF” (Luye Innomind Pharma Shijiazhuang Co., Ltd., priority 2022, dated 2024).

Amino acid sequences for entries named in this document (tags omitted).
UniProt P28223, whole entry: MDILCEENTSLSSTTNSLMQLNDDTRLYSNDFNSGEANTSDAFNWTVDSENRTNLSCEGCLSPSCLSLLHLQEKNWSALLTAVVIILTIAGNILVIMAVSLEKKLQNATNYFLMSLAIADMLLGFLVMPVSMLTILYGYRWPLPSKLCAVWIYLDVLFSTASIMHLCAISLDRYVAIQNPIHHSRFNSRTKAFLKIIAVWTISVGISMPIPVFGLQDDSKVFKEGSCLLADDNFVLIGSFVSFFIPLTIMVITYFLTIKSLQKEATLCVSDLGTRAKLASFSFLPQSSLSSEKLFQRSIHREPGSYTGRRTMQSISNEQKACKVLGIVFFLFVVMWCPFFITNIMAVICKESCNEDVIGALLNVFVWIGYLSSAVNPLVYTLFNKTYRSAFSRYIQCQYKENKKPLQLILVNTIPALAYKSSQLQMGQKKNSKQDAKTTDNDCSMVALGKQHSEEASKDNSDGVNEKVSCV

What was measured:
[1] = In-vitro liver microsomal stability (human); format: in vitro ADME; conditions: Human liver microsomes, 1 µM, 0.5 mg/mL, NADPH
[2] = In-vitro liver microsomal stability (rat); format: in vitro ADME; conditions: Rat liver microsomes, 1 µM, 0.5 mg/mL, NADPH
5-HT2A receptor = 5-HT2A receptor (Homo sapiens, UniProt P28223); experiment: Assay for 5-HT2A receptor inverse agonist activity (NIH3T3-5-HT2A R cells, Bright-Glo luciferase, cell inhibition rate); conditions: read-out: 5-HT2A inverse agonist activity IC50, 120 h, luminescence
SD rats = experiment: In-vivo pharmacodynamics: DOI-induced head twitch model; conditions: reduction of head twitches, single intragastric administration

Row | Structure (SMILES) | Remaining amount% at 60 min [1] | Remaining amount% at 60 min [2] | IC50 (5-HT2A receptor) | effective dose (SD rats)
1 | CN1CCC(N(Cc2ccc(F)cn2)C(=O)NCc2cnc(OCC(F)(F)F)cc2Cl)CC1 | 45.97% | 71.34% | – | –
2 | CN1CC[C@H](N(Cc2ccc(F)cn2)C(=O)NCc2ccc(OCC(F)(F)F)nc2)[C@H](F)C1 (relative stereo) [Compound 39] | 48.30% | 25.13% | > 1 µM | –
3 | CN1CC[C@H](N(Cc2ccc(F)cn2)C(=O)NCc2ccc(OCC(F)(F)F)nc2)[C@H](F)C1 (relative stereo) [Compound 41] | – | – | 0.128 µM | –
4 | CN1CC[C@H](N(Cc2ccc(F)cc2)C(=O)NCc2ccc3occc3c2)[C@H](F)C1 (relative stereo) [Compound 87A] | – | – | 0.665 µM | –
5 | CN1CC[C@H](N(Cc2ccc(F)cc2)C(=O)NCc2ccc3occc3c2)[C@H](F)C1 (relative stereo) [Compound 87B] | – | – | 0.0137 µM | –
6 | CN1CC[C@H](N(Cc2ccc(F)cc2)C(=O)NCc2ccc(OCC(F)(F)F)nc2F)[C@H](F)C1 (relative stereo) [Compound 88A] | – | – | 0.142 µM | –
7 | CN1CC[C@H](N(Cc2ccc(F)cc2)C(=O)NCc2ccc(OCC(F)(F)F)nc2F)[C@H](F)C1 (relative stereo) [Compound 88B] | – | – | > 1 µM | –
8 | CN1CC[C@H](N(Cc2ccc(F)cc2)C(=O)NCc2cnc(OC3CC(F)(F)C3)c(F)c2)[C@H](F)C1 (relative stereo) [Compound 89A] | – | – | 0.14 µM | –
9 | CN1CC[C@H](N(Cc2ccc(F)cc2)C(=O)NCc2cnc(OC3CC(F)(F)C3)c(F)c2)[C@H](F)C1 (relative stereo) [Compound 89B] | – | – | > 1 µM | –
10 | CN1CCC(N(Cc2ccc(F)cc2)C(=O)NCc2ccc(OCC(F)(F)F)nc2)C(F)C1 (single isomer, unassigned) [Compound 68A] | 42.89% | – | 0.0764 µM | 0.22 mg/kg
11 | CN1CCC(N(Cc2ccc(F)cc2)C(=O)NCc2ccc(OCC(F)(F)F)nc2)C(F)C1 (single isomer, unassigned) [Compound 68B] | 30.07% | – | > 1 µM | –
12 | CN1CCC(N(Cc2ccc(F)cc2)C(=O)NCc2ccc(OCC(F)(F)F)nc2)C(F)C1 (single isomer, unassigned) [Compound 68C] | 20.2% | – | > 1 µM | –
13 | CN1CCC(N(Cc2ccc(F)cc2)C(=O)NCc2ccc(OCC(F)(F)F)nc2)C(F)C1 (single isomer, unassigned) [Compound 68D] | 11.9% | – | > 1 µM | –
